According to patent US8742134B2, “7-azoniabicyclo[2.2.1]heptane derivatives, methods of production, and pharmaceutical uses thereof” (dated 2014):

test system: methacholine-induced bronchoconstriction in rat; assay: Rat bronchoprotection protocol, MCh dose response (inhalation); settings: 24 h post inhalation, nebulized drug solution

Question: With `C[N+]1(C)C2CC[C@H]1[C@@H](OC(=O)[C@@](O)(c1ccccc1)C1CCCC1)C2` as the molecule, how does the “Potency (ID50)” value read?
Answer: >100 µg/mL

Question: How did the “Potency (ID50)” value turn out when `C[N+]1(C)C2CC[C@H]1[C@H](OC(=O)[C@@](O)(c1ccccc1)C1CCCC1)C2` was run?
Answer: >100 µg/mL

Question: `C[N+]1(C)C2CC[C@@H]1[C@@H](OC(=O)[C@@](O)(c1ccccc1)C1CCCC1)C2` was tested. Which “Potency (ID50)” value did it give?
Answer: >100 µg/mL

Question: With `C[N+]1(C)C2CC[C@@H]1[C@H](OC(=O)[C@@](O)(c1ccccc1)C1CCCC1)C2` as the molecule, how does the “Potency (ID50)” value read?
Answer: >100 µg/mL
